Measured values reported in US9024044B2, “Heteroarylcarboxylic acid ester derivative” (Ajinomoto Co., Inc., priority 2012, dated 2015).

Chains of the proteins cited; added tags and fusions are not shown. Residues count along the entry.
UniProt P98073, whole entry: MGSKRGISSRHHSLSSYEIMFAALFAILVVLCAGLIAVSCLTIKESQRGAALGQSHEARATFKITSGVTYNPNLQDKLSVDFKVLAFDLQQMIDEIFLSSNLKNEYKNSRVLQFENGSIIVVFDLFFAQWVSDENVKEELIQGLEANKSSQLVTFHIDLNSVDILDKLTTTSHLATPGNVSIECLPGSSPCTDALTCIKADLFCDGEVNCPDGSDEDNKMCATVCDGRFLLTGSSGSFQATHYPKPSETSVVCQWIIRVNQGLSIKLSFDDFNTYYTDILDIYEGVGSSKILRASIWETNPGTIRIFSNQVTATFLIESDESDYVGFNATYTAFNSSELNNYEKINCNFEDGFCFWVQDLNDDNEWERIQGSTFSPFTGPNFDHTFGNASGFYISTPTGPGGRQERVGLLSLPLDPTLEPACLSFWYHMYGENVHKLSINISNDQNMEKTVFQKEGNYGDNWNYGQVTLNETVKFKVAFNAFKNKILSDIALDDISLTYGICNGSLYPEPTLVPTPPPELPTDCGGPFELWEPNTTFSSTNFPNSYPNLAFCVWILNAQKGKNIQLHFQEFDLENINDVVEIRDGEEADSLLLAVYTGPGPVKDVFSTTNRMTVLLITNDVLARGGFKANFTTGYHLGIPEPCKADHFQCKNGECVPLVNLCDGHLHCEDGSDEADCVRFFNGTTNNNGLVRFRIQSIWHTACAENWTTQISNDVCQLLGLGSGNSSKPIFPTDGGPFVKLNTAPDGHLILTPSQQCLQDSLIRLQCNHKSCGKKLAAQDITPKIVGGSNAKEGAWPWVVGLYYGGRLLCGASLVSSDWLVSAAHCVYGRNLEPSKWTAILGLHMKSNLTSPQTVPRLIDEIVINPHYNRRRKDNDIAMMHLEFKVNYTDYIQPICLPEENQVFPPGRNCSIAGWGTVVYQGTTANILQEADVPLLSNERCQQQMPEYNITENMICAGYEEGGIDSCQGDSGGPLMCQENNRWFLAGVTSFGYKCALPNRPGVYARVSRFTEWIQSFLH
UniProt P07477, 24-247 limits assumed: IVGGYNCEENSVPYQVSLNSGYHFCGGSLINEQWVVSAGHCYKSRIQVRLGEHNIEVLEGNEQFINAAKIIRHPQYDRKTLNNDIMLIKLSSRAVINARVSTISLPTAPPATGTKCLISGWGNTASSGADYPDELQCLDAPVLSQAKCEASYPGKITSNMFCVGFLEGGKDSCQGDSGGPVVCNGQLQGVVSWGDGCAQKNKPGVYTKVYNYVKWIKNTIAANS

Assays:
[1] = molecular target: recombinant human enteropeptidase (Homo sapiens (Human), UniProt P98073); test: Measurement of enteropeptidase inhibitory activity; conditions: read-out: Enteropeptidase inhibitory activity Ki, substrate Gly-Asp-Asp-Asp-Asp-Lys-β-Naphtylamide, Tris-HCl pH 8.0, Dixon plot, tested form: TFA
Protocol: Measurement of Enteropeptidase Inhibitory Activity
Using a 96 well plate (#3915, Costar), a test compound (25 μL), 400 mM Tris-HCl buffer (pH 8.0, 25 μL) and 0.5 mg/mL fluorescence enzyme substrate (Gly-Asp-Asp-Asp-Asp-Lys-β-Naphtylamide, 25 μL) were mixed, and recombinant human enteropeptidase (R&D Systems, Inc., 25 μL) was added. Using a fluorescence plate reader fmax (Molecular Devices, Inc.), the reaction rate was measured from the time-course changes at excitation wavelength 320 nm and fluorescence wavelength 405 nm. The Ki value was calculated from the concentration of the test compound, reciprocal of reaction rate, and Km value of the enzyme substrate, and by using Dixon plot.

human trypsin = human trypsin (Homo sapiens, UniProt P07477); test: Measurement of trypsin inhibitory activity; conditions: read-out: Trypsin inhibitory activity Ki, substrate Boc-Phe-Ser-Arg-AMC, Tris-HCl pH 8.0, Dixon plot, tested form: TFA
Protocol: Measurement of Trypsin Inhibitory Activity
Using a 96 well plate (#3915, Costar), a test compound (25 μL) was mixed with 20 μM fluorescence enzyme substrate (Boc-Phe-Ser-Arg-AMC, 50 μL) mixed with 200 mM Tris-HCl buffer (pH 8.0), and human trypsin (Sigma, 25 μL) was added. Using a fluorescence plate reader fmax (Molecular Devices, Inc.), the reaction rate was measured from the time-course changes at excitation wavelength 355 nm and fluorescence wavelength 460 nm. The Ki value was calculated from the concentration of the test compound, reciprocal of reaction rate, and Km value of the enzyme substrate, and by using Dixon plot.

COC(=O)c1cc(NC(=O)C(C)(C)Cc2ccc(C(=O)Oc3ccc(C(=N)N)cc3F)s2)cc(C(=O)O)c1
Ki [1]: 1.22 nM
Ki (human trypsin): 1.02 nM
